Rows were chosen to be rich in hits. Some 1.5% of all compounds tested hit in one or more screens of this group.
Yeast UUG start-1 – yeast start codon fidelity modulation; activity score, % at 18.7 µM; actives 0.13% (n = 350,000); S. cerevisiae UUG-firefly luciferase reporter, luminescence/redox ratio; AID 602363;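 active means replicate mean at a twofold rise or more, about +100% in these data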;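 further: firefly luciferase made from a UUG start codon reports start codon fidelity; reporter light over untreated wells divided by growth signal over untreated wells; some hits fall short of that in this replicate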
Cneo AK release – causes C. neoformans cell lysis | 0.2% of 360,000 active | lysis activity, % at 15 µM | adenylate kinase release luminescence, 4 h; normalised: neutral wells 0, clomiphene wells 100 | AID 651654;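 active = mean lysis activity across replicates of at least 80%, whatever share of replicates individually reach that level; inactive = mean lysis activity below 80%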
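Assay system: log-phase C. neoformans yeast / Quantity: yeast cell density of 5 × 10^6 cells/mL / Medium: fresh YPD growth medium / Compound: single dose / Timing: static 4 h at 37 °C with compound, 1 h detection / Measured by: adenylate kinase release luminescence / Read-out: lysis from increased AK signal / Benchmarks: Clomiphene as positive lysis control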
miR122 inh – blocks miR-122 activity in Huh7 sensor cells; Huh7 miR-122 Renilla luciferase sensor, 48 h; neutral wells = 0, positive control = 100; AID 602342; 0.3% of 340,000 active; activation (reporter increase), % at 12.5 µM;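 active = mean replicate activation score at least 90 and every replicate individually at or above 90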;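 note: higher luciferase means less miR-122 activity so hits act as miR-122 inhibitors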
Env fusion inh – blocks HIV Env-driven cell-cell fusion; HeLa-JRFL Env/CEM21 cell fusion, luciferase; inhibition, % at 12.3 µM; 1.1% of 360,000 active; AID 651610;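 active = mean replicate inhibition score of at least 50 and every replicate individually at or above 50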;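 note: 0% = plate neutral controls and 100% = maraviroc near 300 nM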
PGC1a acetyl inh – PGC1a acetylation modulation, inhibitor mode. U2OS PGC1a acetylation, AlphaScreen anti-acetyl-lysine; with virally co-expressed GCN5 acetyltransferase. inhibition, % at 15.6 µM. 0.17% of 350,000 active. AID 651687;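 active = every replicate shows inhibition of at least 40%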;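 note: 0% = neutral control wells and 100% = positive control wells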
FN deposition inh – fibronectin deposition inhibition; AH1F fibroblasts, Alexa488-fibronectin deposition fluorescence, overnight; inhibition, % at 12.6 µM; 0.086% of 350,000 active;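 active = mean inhibition across replicates of 30% or more, regardless of how many single replicates reach that level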;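 note: positive control wells lacked labelled fibronectin entirely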
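material = AH1F fibroblast monolayer depositing Alexa488-labelled fibronectin into matrix | amount = 10000 AH1F cells/well | buffer or medium = DMEM plus 2% serum, read in PBS | incubation = 1 h cell adhesion before compound, then overnight fibronectin incubation | detection = fluorescence at 485 nm excitation, 525 nm emission | evaluation = percent inhibition as loss of matrix-bound fibronectin fluorescence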
Yeast UUG start-2 – yeast start codon fidelity modulation; 540 tested, under 10 active; shares compounds with Yeast UUG start-1; S. cerevisiae UUG-start firefly luciferase, luminescence, 4 h; 100% means double the DMSO signal; activation, % at 38 µM;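 active = signal increase whose fitted curve reaches an absolute level of 40 at a concentration under 10 µM; inactive = activity opposite to the expected increase, or the rest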
* = called active by the depositor; i = inactive; x = no result; [ ] = remark or other dose.

SMILES	Yeast UUG start-1	Cneo AK release	miR122 inh	Env fusion inh	PGC1a acetyl inh	FN deposition inh	Yeast UUG start-2
COc1ccc(NC(=O)c2noc(C(C)C)c2[N+](=O)[O-])cc1	528*	84*	-2	12	7	-4	-3
CO[C@H]1CN(C)C(=O)c2ccc(NC(=O)c3nc4ccccc4s3)cc2OC[C@@H](C)N(Cc2ccncc2)C[C@H]1C	140*	-1	x	x	-5	1	i
CCOC(=O)NNC(=O)C12CC3CC(CC(C3)C1)C2	489*	1	3	6	-4	x	-10
C[C@H](CO)N1C[C@H](C)[C@H](CN(C)C(=O)CN2CCOCC2)Oc2cc(/C=C/c3ccccc3)ccc2S1(=O)=O	0	1	-21[16.7 µM]	1[16.7 µM]	-19	x	x
O=C(O)CSc1nnc(-c2ccc(Cl)cc2)n1-c1ccccc1	124*	-1	-5	9	-4	-6	0
CCCNC(=O)C[C@@H]1CC[C@@H]2[C@H](COC[C@@H](O)CN2Cc2cccc(F)c2)O1	107*	-1	-3[16.7 µM]	x	0	-1	i
CCCNC(=O)C[C@@H]1CC[C@H]2[C@@H](COC[C@H](O)CN2Cc2cccc(F)c2)O1	5	-7	2[16.7 µM]	x	1	-1	x
COc1cccc(Oc2ccc(OC)cc2C(=O)O)c1	117*	3	3	7	-4	4	-17
COc1cc(NC(=O)c2cc3nc(C)cc(C)n3n2)c(OC)cc1Cl	1	-5	-11	x	15	x	x
C[N+]1(CC#CC(O)(c2ccccc2)c2ccccc2)CCCC1	x	x	x	-37	x	2	5
CC(C)[N+](C)(C)CC#CC(O)(c1ccccc1)c1ccccc1	x	x	x	-17	8	-6	7
COc1ccc(S(=O)(=O)Nc2ccc3c(c2)[C@@H]2C[C@H](CC(=O)O)O[C@@H](CO)[C@@H]2O3)cc1	0	-4	6[16.7 µM]	x	2	-5	x
C[C@H](CO)N1C[C@H](C)[C@@H](CN(C)C(=O)Nc2ccccc2F)Oc2cc(Br)ccc2S1(=O)=O	5	3	6	-30[16.7 µM]	-16	2	x
COc1ccccc1NC(=O)N(C)C[C@@H]1Oc2cc(Br)ccc2S(=O)(=O)N([C@@H](C)CO)C[C@H]1C	109*	49	3[16.7 µM]	-11[16.7 µM]	-6	9	i
COc1ccc(NC(=O)N(C)C[C@@H]2Oc3cc(-c4ccncc4)ccc3S(=O)(=O)N([C@@H](C)CO)C[C@@H]2C)cc1	-6	1	12[16.7 µM]	-13[16.7 µM]	-9	3	x
COc1ccc(-c2ccc3c(c2)O[C@H](CN(C)C(=O)c2ccccc2F)[C@H](C)CN([C@H](C)CO)S3(=O)=O)cc1	25*	-2	-7[16.7 µM]	14[16.7 µM]	11	x	i
Cc1ccccc1-c1ccc2c(c1)O[C@H](CN(C)C(=O)c1ccccn1)[C@H](C)CN([C@H](C)CO)S2(=O)=O	139*	-1	33[16.7 µM]	11[16.7 µM]	-15	-7	i
Cc1ccccc1-c1ccc2c(c1)O[C@H](CN(C)C(=O)c1ccccn1)[C@@H](C)CN([C@@H](C)CO)S2(=O)=O	0	-1	7[16.7 µM]	-8[16.7 µM]	-2	1	x
COc1ccc(-c2ccc3c(c2)O[C@H](CN(C)C(=O)c2ccccc2F)[C@H](C)CN([C@@H](C)CO)S3(=O)=O)cc1	27	-3	-10[16.7 µM]	5[16.7 µM]	3	x	x
COc1ccc(NC(=O)N(C)C[C@@H]2Oc3cc(-c4ccncc4)ccc3S(=O)(=O)N([C@H](C)CO)C[C@@H]2C)cc1	172*	3	-3[16.7 µM]	-11[16.7 µM]	7	-10	i
CC(C)C[C@@H](CN)NC(=O)c1nc[nH]c1C(=O)N[C@@H](CC(C)C)C(=O)CNC[C@H](C)NC(=O)c1nc[nH]c1C(=O)N[C@@H](CC(C)C)C(=O)O	5	-5	0	x	x	x	x
CC(C)C[C@@H](CN)NC(=O)c1nc[nH]c1C(=O)N[C@@H](Cc1c[nH]c2ccccc12)C(=O)CNC[C@H](C)NC(=O)c1nc[nH]c1C(=O)N[C@@H](CC(=O)O)C(=O)O	180*	-3	6	x	x	4	7
Cc1ccccc1OC1(C)CCN(Cc2ccc(-c3ccccn3)cc2)C1 (stereo not given)	x	-1	4	46	-3	2	x
O=C(CCc1nnc(-c2ccccc2)o1)NC1CCCCC1	-4	4	1	-25	-2	5	x
COc1ccc(N/C(N)=N/c2nc(CSc3nnc(C)s3)cc(=O)[nH]2)cc1	172*	1	21	-24	-10	24	-2
Cc1ccc(N/C(N)=N/c2nc(CSc3nnc(C)s3)cc(=O)[nH]2)c(C)c1	x	x	x	-146	3	x	x
C[C@H](CO)N1C[C@H](C)[C@H](CN(C)C(=O)c2cccnc2)Oc2ncc(-c3ccc(C#N)cc3)cc2C1=O	154*	-5	x	-7[16.7 µM]	4	-3	i
C[C@H]1CN([C@@H](C)CO)C(=O)c2cc(-c3ccc(C#N)cc3)cnc2O[C@H]1CN(C)C(=O)c1cccnc1	-6	4	x	-17[16.7 µM]	-3	-6	x
C[C@@H]1CN([C@@H](C)CO)C(=O)c2cc(-c3cccc(F)c3)cnc2O[C@@H]1CN(C)C(=O)c1cccc(F)c1	active	-1	-1[16.7 µM]	-15[16.7 µM]	-4	2	i
Cc1ccc(S(=O)(=O)N2CCC(C(=O)N3CCC[C@H]3C(=O)NC3CCS(=O)(=O)C3)CC2)cc1 (stereo not given in full)	-11	0	0	-106	-5	8	x

A second format for part of the listing above:
Results follow in this order: Yeast UUG start-1 | Cneo AK release | miR122 inh | Env fusion inh | PGC1a acetyl inh | FN deposition inh | Yeast UUG start-2
- C[C@H](CO)N1C[C@H](C)[C@H](CN(C)C(=O)c2cccnc2)Oc2ncc(-c3ccc(C#N)cc3)cc2C1=O
    154* | -5 | x | -7[16.7 µM] | 4 | -3 | i
- C[C@H]1CN([C@@H](C)CO)C(=O)c2cc(-c3ccc(C#N)cc3)cnc2O[C@H]1CN(C)C(=O)c1cccnc1
    -6 | 4 | x | -17[16.7 µM] | -3 | -6 | x
- C[C@@H]1CN([C@@H](C)CO)C(=O)c2cc(-c3cccc(F)c3)cnc2O[C@@H]1CN(C)C(=O)c1cccc(F)c1
    active | -1 | -1[16.7 µM] | -15[16.7 µM] | -4 | 2 | i
- Cc1ccc(S(=O)(=O)N2CCC(C(=O)N3CCC[C@H]3C(=O)NC3CCS(=O)(=O)C3)CC2)cc1 (stereo not given in full)
    -11 | 0 | 0 | -106 | -5 | 8 | x

Additional entries follow.
SMILES	Yeast UUG start-1	Cneo AK release	miR122 inh	Env fusion inh	PGC1a acetyl inh	FN deposition inh	Yeast UUG start-2
O=C(Cc1c[nH]c2ccccc12)N1CCc2ccccc21	344*	-4	11	x	x	x	-1
O=C(CSc1c[nH]c2ccccc12)N1CCCc2ccccc21	-5	2	-3	10	-2	12	x
COC(=O)c1c2oc(c1C(=O)OC)C(=O)N[C@@H](Cc1ccccc1)Cn1cc(nn1)CNC(=O)[C@H](Cc1ccccc1)NC(=O)N[C@@H](CO)CC2	113*	-7	x	14[16.7 µM]	9	x	i
COC(=O)C1=C2CC[C@H](CO)NC(=O)N[C@H](Cc3ccccc3)C(=O)NCc3cn(nn3)C[C@@H](Cc3ccccc3)NC(=O)c3oc(c(C(=O)OC)c3C(=O)OC)CC[C@H](CO)NC(=O)N[C@H](Cc3ccccc3)C(=O)NCc3cn(nn3)C[C@@H](Cc3ccccc3)NC(=O)C(=C1C(=O)OC)O2	63	51	x	6[16.7 µM]	x	x	x
COC(=O)c1c2oc(c1C(=O)OC)C(=O)N[C@@H](Cc1ccccc1)Cn1cc(nn1)[C@@H](Cc1ccccc1)NC(=O)N[C@@H](CO)CC2	x	0	x	-9[16.7 µM]	0	x	x

Source: PubChem
